Test results taken from patent US8153609B2 (priority 2004, dated 2012).
Read-outs that look alike come from different tables or passages of the source.

Experiments:
[1] = molecular target: T1, PKA type IIα (RIIα holoenzyme) (Homo sapiens, UniProt P13861); assay: Cook assay, activation of Holo RIIα; conditions: Table 2, Holo RIIa
[2] = molecular target: T2, PKA type Iα (RIα/Cα) holoenzyme (Homo sapiens, UniProt P10644); assay: Cook assay, activation (agonist) assay, RIα holoenzyme; type: biochemical; conditions: Table 1 (Example 83), activation screen 10 μM analog
PKA type Iα (holo RIα) = PKA type Iα (holo RIα) (Homo sapiens, UniProt P10644); assay: Biacore surface competition ligand binding assay, holo RIα
holo RIIα = holo RIIα (Homo sapiens, UniProt P13861); assay: Biacore surface competition ligand binding assay, holo RIIα; conditions: read-out: holo RIIa Biacore
[3] = molecular target: T2, PKA type Iα (RIα/Cα) holoenzyme; assay: Cook coupled spectrophotometric kinase assay, suppression (antagonist) assay, PKA type Iα; type: biochemical; conditions: for Antagonist: Table 1 (Example 83), PKA type Iα; for relative potency*: antagonists relative to Rp-8Br-cAMPS
[4] = molecular target: T1, PKA type IIα (RIIα holoenzyme); assay: Cook kinase assay, suppression assay, PKA type IIα; type: biochemical
[5] = test system: Human peripheral T lymphocytes; assay: T lymphocyte proliferation assay (anti-CD3 activated, [3H]thymidine); conditions: Ex vivo testing in T lymphocytes; for Antagonist properties: in presence of agonist Sp-8-Br-cAMPS; for relative potency*: reference compounds = 1.00
[6] = excess of antagonist 10 μM, 10 nM holo RIα
[7] = read-out: half-maximal antagonistic effect (IC50 or EC50), reversal of Sp-8-Br-cAMP-mediated PKA activation, 1 μM Sp-8-Br-cAMPS, 10 nM RIα holoenzyme

SMILES | Agonist [2] | Antagonist [3] | relative potency* [3] | IC50 [3, 7] | Agonist properties [5] | Antagonist properties [5] | relative potency* [5] | further results
Nc1ncnc2c1nc(Br)n2[C@@H]1O[C@@H]2CO[P@@](=O)(S)O[C@H]2[C@H]1O | no | yes | 1.00 | 1.2 µM | No | Yes | 1.00 | Agonist [1]: no; EC50 (PKA type Iα (holo RIα); Rp-8-AHA cAMPS surface, 10 nM holo RIα): 2.6 µM; EC50 (PKA type Iα (holo RIα); Rp-8-AHA cAMPS surface, 10 nM holo RIα, listed as Rp-8-Br cAMPS): 2.9 µM; binding to 8-AHA cAMP surface (PKA type Iα (holo RIα); any concentration of antagonist, 10 nM holo RIα): not affected; binding of holo complex at the Rp-8-AHA cAMPS surface (PKA type Iα (holo RIα); [6]): completely blocked; effect in binding to the 8-AHA cAMP surface (PKA type Iα (holo RIα); [6]): no effect; EC50 (PKA type Iα (holo RIα); read-out: holo RIa Biacore, Table 3, 2 nM holo): 2.4 µM; EC50 (holo RIIα; 8-AHA surface): 21.2 µM; EC50 (holo RIIα; Rp-8-AHA surface): 10.8 µM; Potency ([3]; PKA type Iα enzymatic activity, relative to the known Rp-8-Br-cAMPS): 1.00; IC50 ([3]; read-out: half-maximal antagonistic effect (IC50 or EC50), average in several experiments, average, n=3): 1.35 µM; IC50 ([3]; read-out: holo RIa Cook, Table 3): 1.3 µM; relative inhibition* ([4]; % antagonist effect with 1 μM Sp-8Br-cAMPS at 250 μM of Rp-cAMPS analog): 79%; EC50RII/EC50RI*** ([4]; Selectivity for PKA type I (EC50 PKA type II/EC50 PKA type I)): 12; Antagonist ([4]; Table 2, Holo RIIa): yes; relative potency** ([4]; antagonists relative to Rp-8-Br-cAMPS, Holo RIIa): 1.00; IC50 ([4]; read-out: half-maximal antagonistic effect (IC50 or EC50), reversal of Sp-8-Br-cAMP-mediated PKA type II activation, 1 μM Sp-8-Br cAMPS, 10 nM RIIα holoenzyme): 14.9 µM
C=C(OCC)c1nc2c(N)ncnc2n1[C@@H]1O[C@@H]2CO[P@@](=O)(S)O[C@H]2[C@H]1O | no | yes | 0.56 | 2.4 µM | No | Yes | 0.26 | –
Cc1nc2c(N)ncnc2n1[C@@H]1O[C@@H]2CO[P@@](=O)(S)O[C@H]2[C@H]1O | no | yes | 0.16 | – | No | Yes | 0.69 | –
